Experiment: UVA/UVB ratio from absorption spectra (Eq. 3) and Boots UVA Star Rating
Format: physicochemical
Experimental: Critical Wavelength (λC) and the UVA/UVB ratios were also calculated from the absorption spectra and were collected in Table 2. […] According to these International indications, aqueous solutions of Haberlea rhodopensis with different concentrations of myconoside can be attributed to the group of good protection (2 UVA Star Rating).
In order to further characterize solutions as skin photo-protectors from UVA, the UVA/UVB ratio was calculated using Eq. 3: […]
In order to characterize the ability of creams to protect skin against UVA the UVA/UVB ratio was calculated using Eq. 3: […]

butylmethoxydibenzoylmethane [avobenzone]
2.26: UVA/UVB (chemical UV filter 0.5% in sun protective solution) | UVA/UVB (chemical UV filter 1% in sun protective solution) | UVA/UVB (chemical UV filter 2.5% in sun protective solution) | UVA/UVB (chemical UV filter 5% in sun protective solution) | ratio UVA/UVB (chemical sunscreen, no concentration stated)

Reference: US20250032569A1, “COMPOSITION, IN PARTICULAR COSMETIC FORMULATION, COMPRISING A VERBASCOSIDE EXTRACT” (MEDENA AG, priority 2021, published 2025)
